Here are results for 26 compounds from PubChem BioAssay AID651644 (National Center for Advancing Translational Sciences (NCATS), 2012).

The structures appear in SMILES notation. Only a part is listed here, and it is no random draw. Some tests of the compounds listed are not included; inactive here does not mean inactive elsewhere. Active and inactive are the calls of the source. Calls come from the whole dose curve; as a rule, active = well fitted falling curve with a large enough effect; inconclusive = small, poorly fitted or top-dose-only effect; inactive = no such curve, though single readings can be large or run the other way.
% is set by controls: 0 for no effect and ±100 for the full control effect.

The nature of the experiment: qHTS Assay for Inhibitors of the HIV-1 protein Vpr. Note: nearly all actives have a fitted effect of over 50% in size. To be noted: S. pombe RE007 Vpr strain, BacTiter-Glo ATP luminescence, 24 h; at 92.2 µM (top of the series). For orientation: qHTS replaces the single test concentration by a dilution series.
As for `COc1ccc(Cl)cc1C(=O)NCC1(N(C)C)CCCCC1`, the activity change, negative = less growth was inactive: -7%.
The value for `COc1cccc(C(=O)NCC2(N3CCCCC3)CCCCC2)c1` was inactive: -1.54%; that for `O=C(NCC1(N2CCCCC2)CCCCC1)c1cccc(Cl)c1` was inactive: -14.2%; that for `CN(C)C1(CNC(=O)c2ccc(Br)cc2)CCCCC1` was inactive: -19.9%.
Consider `COc1cc(C(=O)NCC2(N(C)C)CCCCC2)c([N+](=O)[O-])cc1OC`, for which the activity change, negative = less growth is inactive: -1.26%.
Take `COc1ccc(Br)c(C(=O)NCC2(N3CCCCC3)CCCCC2)c1`: the activity change, negative = less growth was inactive: -6.08%.
For `C=C(C)C#CC(O)(C(=O)OC1CCN(C)CC1)c1ccccc1` (stereo unspecified) the value was inactive: 17.2%; for `CN(C)c1cccc(C(=O)NCC2(N(C)C)CCCCC2)c1`, inactive: 4.44%.
As for `O=C(OCCN1CCCC1)C(O)(c1ccccc1)c1ccccc1`, the activity change, negative = less growth was inactive: -0.61%.
The value for `CC(C)Oc1ccc(C(=O)NCC2(N(C)C)CCCCC2)cc1` was inactive: 15.9%; that for `O=C(OC1CN2CCC1CC2)C(CO)(c1ccccc1)c1ccccc1` (stereo unspecified) was inactive: -6.01%; that for `CC(C)N1C(=O)CC2(CCN(CCOC(=O)C(O)(c3ccccc3)c3ccccc3)CC2)C1=O` was inactive: 0.621%.
For `COc1cc(SC)ccc1C(=O)NCC1(N(C)C)CCCCC1`, the activity change, negative = less growth is inactive: 4.82%.
For `CCN(CC)CC(C)C(C)OC(=O)C(O)(c1ccccc1)c1ccccc1` (stereo unspecified) the value was inactive: -6.25%.
Take `Cc1ccc(C(=O)NCC2(N3CCCCC3)CCCCC2)cc1`: the activity change, negative = less growth is inactive: -10.9%.
With `O=C(NCC1(N2CCCCC2)CCCCC1)c1cc([N+](=O)[O-])ccc1Cl`, the activity change, negative = less growth is inactive: -13.1%.
Regarding `CN1[C@@H]2CC[C@H]1CC(OC(=O)C(O)(c1ccccc1)c1ccccc1)C2` (stereo partly specified), the activity change, negative = less growth was inactive: -3.46%.
Turning to `O=C(NCC1(N2CCCCC2)CCCCC1)c1cc(F)c(F)cc1Cl`, the activity change, negative = less growth was inactive: 7.08%.
For `C=CCN1CCN(CCOC(=O)C(O)(c2ccccc2)c2ccccc2)CC1` the value was inactive: 0.572%; for `O=C(NCC1(N2CCCCC2)CCCCC1)c1cccc(Br)c1`, inactive: 5.53%.
For `Cc1cc(C(=O)NCC2(N3CCCCC3)CCCCC2)ccc1[N+](=O)[O-]` the value was inactive: -17.4%; for `CCN1CCCC(OC(=O)C2(O)c3ccccc3C=Cc3ccccc32)C1` (stereo unspecified), inactive: -0.12%; for `COc1ccc(C(=O)NCC2(N(C)C)CCCCC2)cc1`, inactive: 11.3%.
Turning to `CN(C)C1CCCC1OC(=O)C(O)(c1ccccc1)c1ccccc1` (stereo unspecified), the activity change, negative = less growth was inactive: 5.98%.
`CN(C)c1ccc(C(=O)NCC2(N(C)C)CCCCC2)cc1`: the activity change, negative = less growth was inactive: 8.8%.
For `Cc1ccccc1C(=O)NCC1(N2CCCCC2)CCCCC1` the value was inactive: -2.78%.
